Laboratory results published in patent publication US20080152640A1, “Means and Methods For Treating a Disease Which is Associated With an Excess Transport of Hyaluronan Across a Lipid Bilayer” (priority 2003, published 2008).
Like-named read-outs stand apart in the source and are kept apart here.

Amino acid sequences for entries named in this document (tags omitted). A change or cut given only in a name is not applied to a line headed by its entry.
UniProt O15439: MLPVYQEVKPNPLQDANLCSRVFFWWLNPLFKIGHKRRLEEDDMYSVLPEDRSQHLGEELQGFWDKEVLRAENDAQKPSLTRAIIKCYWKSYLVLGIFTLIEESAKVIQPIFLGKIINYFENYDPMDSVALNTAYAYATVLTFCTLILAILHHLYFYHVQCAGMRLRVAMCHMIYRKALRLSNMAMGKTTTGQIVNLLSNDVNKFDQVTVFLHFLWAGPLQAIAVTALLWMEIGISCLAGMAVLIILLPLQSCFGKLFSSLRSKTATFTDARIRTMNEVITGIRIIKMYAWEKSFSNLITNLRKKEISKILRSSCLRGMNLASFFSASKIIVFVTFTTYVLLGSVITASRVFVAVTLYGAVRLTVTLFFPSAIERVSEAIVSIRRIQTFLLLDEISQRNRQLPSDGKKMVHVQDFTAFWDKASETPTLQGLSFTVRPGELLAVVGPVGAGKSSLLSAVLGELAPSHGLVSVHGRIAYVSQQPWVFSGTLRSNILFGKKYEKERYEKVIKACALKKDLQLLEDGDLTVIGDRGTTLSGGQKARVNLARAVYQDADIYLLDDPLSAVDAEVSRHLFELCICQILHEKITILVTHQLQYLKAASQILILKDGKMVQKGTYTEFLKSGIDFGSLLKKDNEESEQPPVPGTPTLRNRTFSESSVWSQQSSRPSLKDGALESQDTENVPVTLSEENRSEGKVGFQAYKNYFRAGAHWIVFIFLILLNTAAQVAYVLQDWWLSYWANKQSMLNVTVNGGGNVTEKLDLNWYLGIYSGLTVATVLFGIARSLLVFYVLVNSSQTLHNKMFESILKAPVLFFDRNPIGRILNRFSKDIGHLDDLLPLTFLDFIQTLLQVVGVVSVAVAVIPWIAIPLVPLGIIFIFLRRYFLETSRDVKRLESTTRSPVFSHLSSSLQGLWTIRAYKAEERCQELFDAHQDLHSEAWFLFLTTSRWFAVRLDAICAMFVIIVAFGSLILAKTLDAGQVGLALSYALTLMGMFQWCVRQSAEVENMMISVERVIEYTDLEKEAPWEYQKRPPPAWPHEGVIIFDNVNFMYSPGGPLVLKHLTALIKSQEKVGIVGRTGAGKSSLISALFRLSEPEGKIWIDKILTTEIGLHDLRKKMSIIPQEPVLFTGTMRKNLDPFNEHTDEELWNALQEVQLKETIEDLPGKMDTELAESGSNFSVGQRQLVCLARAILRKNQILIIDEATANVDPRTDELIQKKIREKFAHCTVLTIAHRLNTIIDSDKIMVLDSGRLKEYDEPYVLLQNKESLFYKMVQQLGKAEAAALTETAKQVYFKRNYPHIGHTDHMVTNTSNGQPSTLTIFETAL

Legend:
human skin fibroblasts = experiment: Proliferation of human skin fibroblasts (cell counting); assay type: cell-based; details: Skin fibroblast, read-out: Proliferation (IC50)
MRP4 = MRP4 (Homo sapiens, UniProt O15439); details: cited from earlier work

SMILES | IC50 (human skin fibroblasts) [µM] | IC50 (MRP4; read-out: IC50, MRP4 mediated export of methotrexate, substrate methotrexate) [µM] | IC50 (MRP4; read-out: published inhibitory concentrations IC50 or Ki, MRP4) [µM]
OCCN(CCO)c1nc(N2CCCCC2)c2nc(N(CCO)CCO)nc(N3CCCCC3)c2n1 [Dipyramidole] | 4 |  | 
CN(C)C(=O)CCSC(SCCC(=O)O)c1cccc(/C=C/c2ccc3ccc(Cl)cc3n2)c1 (stereo not drawn) [MK-571] |  | ~1 | 1
